Assay results reported in publication PMC11066837.
pEC50: −log10 of the molar value.

Tests used:
[1] = molecular target: 14-3-3τ labeled with Alexa Fluor 568 (human) (UniProt P27348); assay: MST; 338 nM total 14-3-3τ of which 50 nM labeled (14-3-3τ-AF568), constant; αS at increasing concentrations spanning the regime of αS multimerization; 10 mM Tris pH 7.4, 10 mM NaCl, 23 °C; Hill fit; concentration axis is total αS
[2] = molecular target: 14-3-3τ labeled with Alexa Fluor 568 (human) (UniProt P27348); assay: MST; 7 nM 14-3-3τ-AF568 (50 nM total 14-3-3τ), constant; αS30 increased up to 2.1 μM (αS30 concentration, not monomer equivalent); 15 h incubation at RT, measured at 25 °C; Hill fit

pEC50 [1]	pEC50 [2]	Substance
6.28		Recombinant human α-synuclein wild-type (from UniProt P37840 1-140) (natural protein)
	8.15	αS30 oligomers (from UniProt P37840 1-140) (complex)
